The target in this test is Human IP6K1 (Homo sapiens, UniProt Q92551). In words: IP6K1 high-throughput screen of the Sigma LOPAC (ADP-Glo Max, single point).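 Also: final compound concentration 10µM in 5% DMSO.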

Amino acid sequences for entries named in this document (tags omitted). A change or cut given only in a name is not applied to a line headed by its entry.
UniProt Q92551: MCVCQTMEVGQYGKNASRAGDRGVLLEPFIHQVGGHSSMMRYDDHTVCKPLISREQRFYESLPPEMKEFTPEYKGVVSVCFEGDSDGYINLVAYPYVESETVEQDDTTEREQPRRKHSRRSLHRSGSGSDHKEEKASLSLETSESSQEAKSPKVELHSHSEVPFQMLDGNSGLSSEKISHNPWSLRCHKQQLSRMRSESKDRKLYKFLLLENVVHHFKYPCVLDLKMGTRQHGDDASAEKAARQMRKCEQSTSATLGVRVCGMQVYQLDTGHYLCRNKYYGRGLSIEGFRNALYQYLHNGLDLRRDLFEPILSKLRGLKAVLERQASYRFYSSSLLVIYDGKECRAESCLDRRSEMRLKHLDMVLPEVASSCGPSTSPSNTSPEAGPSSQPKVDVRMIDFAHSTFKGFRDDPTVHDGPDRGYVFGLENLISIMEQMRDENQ

Consider two compounds from paper PMC5706701, “Development of a homogenous high-throughput assay for inositol hexakisphosphate kinase 1 activity” (PLoS ONE, 2017).

Structures can show the parent of a compound that is named as a salt.

Consider Picrotoxin, for which the “Raw Signal” value (ADP-Glo Max luminescence raw signal per well) is given as 51061.
Consider `CCN(CC)CC(=O)Nc1c(C)cccc1C` [Lidocaine hydrochloride], for which, for the setting “ADP-Glo Max raw signal per well”, the “Raw Signal” value amounted to 52501. Also, under “Z-score from raw signal with plate average and StDev”, the Z-score was -0.318.
